This series in a line: In vivo pharmacokinetic evaluation in mice. Conditions: C57BL6 mice; for Peak concentration Cmax: plasma. An excerpt: 2. In Vivo Pharmacokinetic Evaluation in Mice
To detect pharmacokinetic parameters of the compounds of the present disclosure in C57BL6 mice
The vehicle used in the experiment was: DMSO:Solutol:PBS=5%:25%:70% (v/v/v). Preparation method: The required compound was weighed accurately, added with a certain volume of DMSO in a certain proportion, vortex-mixed until completely dissolved, then added successively with Solutol and PBS according to the above proportion, and mixed well. The vehicles used in the intravenous (iv) administration group and oral (po) administration group were the same vehicles in the experiment. The intravenous dose was 1 mpk and the oral dose was 2 mpk. Experimental blood collection time points: IV group: 0.083, 0.25, 0.5, 1, 2, 4, 7, 24 h. PO group: 200 μL of whole blood was collected from jugular vein at each time point of 0.25, 0.5, 1, 2, 4, 7 and 24 h, anticoagulated with EDTA-K2, and immediately centrifuged at 4000 rpm for 5 minutes at 4° C. The supernatant was taken and the samples were frozen and stored in a refrigerator at −80° C. Processing of plasma samples: The sample was precipitated with ACN/MeOH (1:1, v/v) precipitant containing internal standard, then centrifuged at 14000 rpm for 5 minutes. The supernatant was taken into LC-MS/MS (AB Triple Quard 5500) for analysis to obtain plasma concentrations, and parameters were calculated by the non-compartmental model of Winnolin 8.1 version.

Setting [1] is: intragastric administration group po, 2 mpk.
[2] abbreviates: intravenous injection group iv, 1 mpk.

Results on 1 compound are retold here after patent US20240083873A1, “PYRIMIDINE CARBOXAMIDE COMPOUND AND APPLICATION THEREOF” (SHANGHAI MEIYUE BIOTECH DEVELOPMENT CO., LTD, priority 2020, published 2024).

As for `O=C(c1cnc(N[C@@H]2CCc3ncccc32)nc1)N1CCC2(CCOCC2)C1`, under setting [1], the “Area under the curve AUC0-7h” value came out at 618.38 ng·h/mL, the “Clearance rate CL” value amounted to 3278.10 mL/h/kg, the “Distributed solvent Vd” value is listed as 7.5 L/kg and the “Half-life T1/2” value is 1.56 h. The “Peak concentration Cmax” value under setting [1] amounted to 557.4 ng/mL. Further, under setting [2], the “Area under the curve AUC0-7h” value was 406.64 ng·h/mL, the “Clearance rate CL” value stood at 2415.50 mL/h/kg, the “Distributed solvent Vd” value is reported as 8.6 L/kg and the “Half-life T1/2” value amounted to 2.46 h. In addition, under setting [2], the “Peak concentration Cmax” value came out at 722.5 ng/mL. Besides, the “Bioavailability F %” value (po 2 mpk vs iv 1 mpk) came out at 76.4%.
